This note sets out measurements from PMC7004151, “Synthesis and Structure‐Activity Relationships of N‐(4‐Benzamidino)‐Oxazolidinones: Potent and Selective Inhibitors of Kallikrein‐Related Peptidase 6” (Chemmedchem, 2019).

The target in one assay is KLK6 (Homo sapiens, UniProt Q92876). As to the kind of experiment: KLK6 enzymatic inhibition assay (fluorogenic Boc-Phe-Ser-Arg-AMC substrate). It is filed as biochemical. Also on record: made in house. Particulars: LipE=pIC50 – logP (KLK6 pIC50, ALogP). As for the experimental part: Using our previously published KLK6 assay format,21 we performed a HTS with the European Lead Factory (ELF),22 and tested ∼350,000 substances at 10 μM for their ability to reduce KLK6‐catalyzed hydrolysis of the fluorogenic Boc‐Phe‐Ser‐Arg‐AMC peptide.
High Throughput Screen: The European Lead Factory library of ∼350,000 compounds was used for high throughput screening at the Pivot Park Screening Center facilities in Oss, The Netherlands. […] For SPR, Biacore T200 was used and KLK6 was immobilized onto a CM5 chip. […] An 8 point 1 in 3 dilution series of 1 (50 μM to 0.02 μM) was also applied at the beginning and end of each screening day.
Enzyme inhibition assays: All chemicals were purchased from Sigma Aldrich (Gillingham, UK) unless otherwise stated.

The target of a further assay is T1, Human trypsin (Homo sapiens, UniProt P07477).
T1 construct: purchased Polymun Scientific
The experiment in a line: Trypsin enzyme inhibition assay. It is filed as biochemical. Particulars: KLK6 over trypsin. As for the experimental part:
Human thrombin was purchased from Biopur. Human trypsin was purchased from Polymun Scientific. Human Factor Xa was purchased from Enzo Life Sciences. […] Fluorescence intensity was then read at ex/em 485/535 following incubation for 1 h at room temperature (thrombin and factor Xa) or 20 min (trypsin).

Each structure is given as a SMILES string.

As to `CC[C@H](NC(=O)[C@H]1CN(c2ccc(C(=N)N)cc2)C(=O)O1)c1cccc2ccccc12` [Compound 32, (5R)‐3‐(4‐carbamimidoylphenyl)‐N‐((S)‐1‐(naphthalen‐1‐yl)propyl)‐2‐oxooxazolidine‐5‐carboxamide], the LipE on KLK6 was determined as 5.34. The selectivity against trypsin result at Human trypsin is given as “over 25 fold”.
